Molecular target: c-Jun N-terminal kinase, JNK (Homo sapiens, UniProt P45983+P53779+P45984)
Test: Increase of JNK phosphorylation in U50488 treated HEK293 cells expressing GFP tagged kappa opioid receptor

Protein sequences, listed by entry. Tags and fused reporters are not part of them. Lines headed by an entry give the natural chain unless they say otherwise; changes in a name come on top.
UniProt P45983: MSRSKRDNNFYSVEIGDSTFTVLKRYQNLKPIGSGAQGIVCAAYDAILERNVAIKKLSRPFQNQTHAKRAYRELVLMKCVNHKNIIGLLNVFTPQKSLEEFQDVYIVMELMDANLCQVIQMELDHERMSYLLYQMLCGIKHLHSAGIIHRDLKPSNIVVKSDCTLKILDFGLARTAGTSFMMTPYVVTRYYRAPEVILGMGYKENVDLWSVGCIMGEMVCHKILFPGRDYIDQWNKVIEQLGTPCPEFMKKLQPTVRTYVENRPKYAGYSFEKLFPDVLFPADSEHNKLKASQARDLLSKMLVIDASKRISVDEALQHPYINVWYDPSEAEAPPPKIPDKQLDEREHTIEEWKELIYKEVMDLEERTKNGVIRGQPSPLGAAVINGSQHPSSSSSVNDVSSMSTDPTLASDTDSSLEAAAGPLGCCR
UniProt P53779: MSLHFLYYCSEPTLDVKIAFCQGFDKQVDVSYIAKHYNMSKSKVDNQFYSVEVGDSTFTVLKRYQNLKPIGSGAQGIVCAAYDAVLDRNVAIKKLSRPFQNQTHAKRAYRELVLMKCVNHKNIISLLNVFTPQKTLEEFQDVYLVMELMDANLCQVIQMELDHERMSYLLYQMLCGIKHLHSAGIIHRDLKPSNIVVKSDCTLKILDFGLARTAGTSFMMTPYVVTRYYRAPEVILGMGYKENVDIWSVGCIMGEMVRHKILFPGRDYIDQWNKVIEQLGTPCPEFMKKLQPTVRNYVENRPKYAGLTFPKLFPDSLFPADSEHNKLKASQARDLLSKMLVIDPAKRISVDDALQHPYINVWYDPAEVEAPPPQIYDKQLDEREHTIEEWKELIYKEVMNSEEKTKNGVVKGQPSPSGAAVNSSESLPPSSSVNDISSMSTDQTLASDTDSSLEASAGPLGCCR
UniProt P45984: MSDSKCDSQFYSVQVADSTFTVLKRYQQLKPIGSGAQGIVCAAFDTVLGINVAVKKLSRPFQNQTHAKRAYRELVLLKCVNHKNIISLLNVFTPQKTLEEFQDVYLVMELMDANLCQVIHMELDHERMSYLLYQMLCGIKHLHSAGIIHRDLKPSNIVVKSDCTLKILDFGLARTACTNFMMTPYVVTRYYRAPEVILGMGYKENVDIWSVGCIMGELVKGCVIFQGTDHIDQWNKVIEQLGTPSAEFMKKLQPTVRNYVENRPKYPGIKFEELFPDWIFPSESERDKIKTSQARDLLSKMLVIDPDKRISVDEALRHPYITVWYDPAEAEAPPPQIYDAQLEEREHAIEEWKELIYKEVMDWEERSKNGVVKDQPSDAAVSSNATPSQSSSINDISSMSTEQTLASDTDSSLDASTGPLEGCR

CN(C(=O)Cc1ccc(Cl)c(Cl)c1)C1CCCCC1N1CCCC1 (stereo unspecified)
EC50: 1240 nM

From ChEMBL document CHEMBL1156503, “Long-acting kappa opioid antagonists disrupt receptor signaling and produce noncompetitive effects by activating c-Jun N-terminal kinase” (J Biol Chem, 2007)
